According to ChEMBL document CHEMBL5380856, “Development of Orally Bioavailable Amidobenzimidazole Analogues Targeting Stimulator of Interferon Gene (STING) Receptor” (J Med Chem, 2023):
The source made the active and inactive calls. No cut-off for these calls is given here.

System: CT26
Conditions: Mus musculus, dose 0.2 mg/kg, route it(Intratumoral), time 8.0 day

## CCn1nc(C)cc1C(=O)Nc1nc2cc(C(N)=O)cc(OC)c2n1CCCNc1ncc(-c2ccccc2C(F)(F)F)o1
  inhibition: Active
